# Laboratory results: PubChem BioAssay AID504634 (The Scripps Research Institute Molecular Screening Center, 2011)
# Sequences of proteins named here, by UniProt entry; tags and fusion partners are left off.
# UniProt P47898, whole entry, looked up: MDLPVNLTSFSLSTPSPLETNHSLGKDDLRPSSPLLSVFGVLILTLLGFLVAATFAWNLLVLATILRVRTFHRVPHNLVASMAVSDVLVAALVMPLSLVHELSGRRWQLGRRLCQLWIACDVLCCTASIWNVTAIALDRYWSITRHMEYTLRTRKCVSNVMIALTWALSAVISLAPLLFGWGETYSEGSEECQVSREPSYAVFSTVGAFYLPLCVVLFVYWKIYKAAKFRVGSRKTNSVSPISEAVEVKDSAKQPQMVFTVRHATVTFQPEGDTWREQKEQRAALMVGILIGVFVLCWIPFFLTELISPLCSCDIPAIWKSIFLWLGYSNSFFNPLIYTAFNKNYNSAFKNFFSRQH
# This is a selection; strong and weak results do not stand in their true shares. The source made the active and inactive calls. Cut-off read from the data, not from the text of the source: active = inhibition mostly above about 23% (no sharp cut-off); inactive = mostly below about 18%.
# Target: 5-hydroxytryptamine receptor 5A (Homo sapiens) (UniProt P47898)
# Assay: HTR5A inverse agonists in luminescence cell assay, primary screen, counter-screen for OPRM1-OPRD1 heterodimer inverse agonist project, full-deck HTS (AID 504634);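 note: 0% = cells with DMSO and 100% = no-cell wells with DMSO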
# Settings: HTR5A cell line, inverse agonism, at 9.3 µM, hits give high values
row,SMILES,inhibition
1,CCOC(=O)c1ccccc1NC(=O)Cn1c(-c2nonc2N)nc2ccccc21,inactive: -18.9%
2,CC(C)NC(=O)CC1C(=O)N(Cc2ccccc2)C(C)c2nc3ccccc3n21 (centres undefined),inactive: -11.1%
3,C(=N\c1nc2ccccc2n1CCN1CCCCC1)/c1ccc2c(c1)OCO2,inactive: 4.9%
4,O=C(Cn1c(Cc2ccccc2)nc2ccccc21)NCc1ccc2c(c1)OCO2,inactive: 5.3%
5,O=P(Nc1nc2ccc(Cl)cc2s1)(c1ccccc1)c1ccccc1,inactive: -1.9%
6,Cc1ccc(-c2csc(NCCn3c(-c4ccncc4)nc4ccccc43)n2)cc1,inactive: -7.94%
7,Cc1ccc(CNC(=O)Cn2cnc3c(NCc4ccccc4)ncnc32)o1,inactive: 10.3%
8,Cc1ccc(C)c(S(=O)(=O)N2CCN(C(=O)Cn3c(C(F)(F)F)nc4ccccc43)CC2)c1,inactive: 1.09%
9,CC(C)[C@H](NC(=O)N1CCn2c1nc1ccccc12)C(=O)NCc1ccccc1Cl,inactive: -19.4%
10,COc1ccc(CN(C)C(=O)Cn2cnc3c(OCc4ccccc4)ncnc32)cc1OC,inactive: 2.14%
11,O=C(Cn1cnc2ccccc21)NCc1ccccc1,inactive: -17.7%
12,Cn1c(=O)n(CCN2CCOCC2)c(=O)c2c1nc1n2CCN1c1ccc(Oc2ccccc2)cc1,inactive: 6.63%
13,COc1ccc(N2CCN(C(=O)Cn3cnc4c3c(=O)n(C)c(=O)n4C)CC2)cc1,inactive: 5.99%
14,CCCC1OP(N)(=O)OCC1CC (centres undefined),inactive: 9.19%
15,Cn1c(=O)c2c(ncn2CC(=O)NC[C@H]2O[C@@H](n3cnc4c(N)ncnc43)[C@H](O)[C@@H]2O)n(C)c1=O,inactive: -2.33%
16,O=C(O)c1ccccc1[As](=O)(O)O,inactive: -5.93%
17,O=C(Cn1c(COc2ccccc2)nc2ccccc21)Nc1cc(Cl)cc(Cl)c1,inactive: 18.3%
18,CC(=O)Nc1ccc([As](=O)(O)O)cc1,inactive: -8%
19,Cn1c(=O)c2ncn(CC(=O)Nc3ccc4c5c(cccc35)CC4)c2n(C)c1=O,inactive: -16.4%
20,CCOc1cccc(N2C(=O)CC(n3cnc4ccccc43)C2=O)c1 (centres undefined),inactive: 0.06%

row,SMILES,inhibition
1,Cc1ccc2c(c1)C1CN(C)CCC1N2C(=O)c1ccccc1NS(=O)(=O)c1ccc(F)cc1 (centres undefined),inactive: 0.27%
2,O=C(Cn1c(NCCO)nc2ccccc21)NCC(F)(F)F,inactive: -1.44%
3,CN1C(=O)Cn2c1nc1ccccc12,inactive: -22.9%
4,CC(C)C[C@H](NC(=O)N1CCn2c1nc1ccccc12)C(=O)N1CCCCC1,inactive: -32.9%
5,CC(C)CSc1nc2ccccc2n1CC(N)=O,inactive: -9.55%
6,C[C@H](O)[C@@H]1C(=O)N2CCc3ccc(N4CCOCC4)cc3[C@@H]2C[C@@H]1N(C)C(=O)Nc1ccccc1,inactive: 2.15%
7,Nc1ncnc2c1ncn2C1OC(CO)C(O)C1N (centres undefined),inactive: 14.5%
8,O=C(Cn1c(SCC(=O)N2CCc3ccccc3C2)nc2ccccc21)NC1CCCC1,inactive: -11.6%
9,Cn1c(=O)n(CC(=O)NCc2cccnc2)c2ccccc21,inactive: 4.6%
10,CC1CCCCN1C(=O)CSc1nc2ccccc2n1CC(=O)N1CCc2ccccc21 (centres undefined),inactive: 10.9%
11,O=C(CCCCCNC(=O)N1CCn2c1nc1ccccc12)N[C@@H](Cc1ccccc1)C(=O)O,inactive: 11.4%
12,Cn1c(=O)c2c(nc(NCc3ccccc3)n2CC(=O)NCc2ccccc2)n(C)c1=O,inactive: -34.5%
13,O=C(Cn1cnc2ccccc21)Nc1cccc([N+](=O)[O-])c1,inactive: -13.7%
14,Nc1cccc2ccc([As](=O)(O)O)cc12,inactive: -1.75%
15,CCN(CC)CCn1c(=N)n(CCOc2ccccc2)c2ccccc21,inactive: -13%
16,CCC(=O)N(c1ccccc1)C1CCCCC1,inactive: 12.1%
17,CCN(N=Nc1nonc1N)c1nonc1N,inactive: 9.84%
18,CC(C)(C)NC(=O)Cn1c(SCC(=O)NC2CCCC2)nc2ccccc21,inactive: -18.3%
19,CCN(CC)CCNC(=O)Cn1c(-c2ccccn2)nc2ccccc21,inactive: 6.09%
20,Nc1nonc1-c1nc2ccccc2n1CC(=O)Nc1ccccc1,inactive: -2.68%

row,SMILES,inhibition
1,CCC(=O)Nc1nnc(/C=C/c2ccc(OC)cc2)s1,inactive: -0.75%
2,CC(=O)c1ccc(NC(=O)C2CC(=O)Nc3nc4ccccc4n32)cc1 (centres undefined),inactive: 9.92%
3,O=C(Nc1ccc2c(c1)nc1n2CCN(Cc2ccccc2)C1)c1cccs1,inactive: -2.17%
4,O=C(CCC(=O)Nc1ccccc1)N/N=C/C=C/c1ccccc1,inactive: 13.4%
5,CC1CN(Cc2nc3c(c(=O)[nH]c(=O)n3C)n2CCN2CCOCC2)CC(C)O1 (centres undefined),inactive: 16.9%
6,Cn1c(=O)c2c(ncn2CC(N)=O)n(C)c1=O,inactive: 12.8%
7,O=C(Cn1c(-c2cncs2)nc2ccccc21)NCc1ccccc1,inactive: 2.73%
8,COc1ccc(N2C(=O)CC(n3c(CCCCO)nc4ccccc43)C2=O)cc1 (centres undefined),inactive: -3.72%
9,O=C(NCCn1c(C(F)(F)F)nc2ccccc21)[C@H]1CCCN1c1nc(CN2CCCCC2)cs1,inactive: -26.3%
10,Cc1ccccc1NC(=O)Cn1cnc2c1c(=O)n(C)c(=O)n2C,inactive: -1.96%
11,O=C(Cn1c(COc2ccccc2)nc2ccccc21)Nc1cc(Cl)ccc1Cl,inactive: 8.86%
12,COc1ccc(CC(=O)N2CCC(Nc3nc4ccccc4n3Cc3ccc(F)cc3)CC2)cc1,inactive: -19.6%
13,COc1ccc(CCNC(=O)Cn2c(-c3nonc3N)nc3ccccc32)cc1OC,inactive: -1.7%
14,CN(CC(=O)Nc1cccc(F)c1)C(=O)Cn1cnc2c1c(=O)n(C)c(=O)n2C,inactive: 6.66%
15,CC(C)NC(=O)Cn1c(SCC(=O)N2CCCCCC2)nc2ccccc21,inactive: -21%
16,O=C(Cn1c(NCCO)nc2ccccc21)NCCc1ccccc1,inactive: -1.94%
17,Cc1ccc(/C=N/NC(=O)Cn2cnc3ccccc32)cc1,inactive: 1.5%
18,Clc1ccc(Cl)c(NC2=NCC(CBr)S2)c1 (centres undefined),inactive: 13.3%
19,CN1CCCC(OC(=O)C(c2ccccc2)c2ccccc2)C1 (centres undefined),inactive: 21.9%
